Data: US20100227767A1, “STOCHASTIC CONFINEMENT TO DETECT, MANIPULATE, AND UTILIZE MOLECULES AND ORGANISMS” (priority 2007, published 2010)

System: Methicillin Resistant S. aureus (MRSA, ATCC#43300)
Test: plug-based microfluidic antibiotic susceptibility screen with alamarBlue viability indicator
Details: breakpoint concentration; 4x10^5 CFU/mL; 7 h at 37° C

With `CN[C@H](CC(C)C)C(=O)N[C@H]1C(=O)N[C@@H](CC(N)=O)C(=O)N[C@H]2C(=O)N[C@H]3C(=O)N[C@H](C(=O)N[C@H](C(=O)O)c4cc(O)cc(O)c4-c4cc3ccc4O)[C@H](O)c3ccc(c(Cl)c3)Oc3cc2cc(c3O[C@@H]2O[C@H](CO)[C@@H](O)[C@H](O)[C@H]2O[C@H]2C[C@](C)(N)[C@H](O)[C@H](C)O2)Oc2ccc(cc2Cl)[C@H]1O` [VCM, vancomycin] the “susceptibility of MRSA to the antibiotic (sensitive: no plug with fluorescence increase greater than 3 times the VCM baseline; resistant: at least one)” value was “sensitive”.
